From article PMC3711794 (Molecular cancer therapeutics, 2012) come the findings set out here.

SMILES strings stand for the structures. Bounds are passed on as bounds.

By IC50 is commonly meant the point on the concentration scale where inhibition reaches its midpoint. High values mean a need for much substance, low ones inhibition by little substance.

The experiment deals with T1, PLK3 PBD (335–646) (Homo sapiens, UniProt Q9H4B4).
T1 sequence (Q9H4B4 335-646): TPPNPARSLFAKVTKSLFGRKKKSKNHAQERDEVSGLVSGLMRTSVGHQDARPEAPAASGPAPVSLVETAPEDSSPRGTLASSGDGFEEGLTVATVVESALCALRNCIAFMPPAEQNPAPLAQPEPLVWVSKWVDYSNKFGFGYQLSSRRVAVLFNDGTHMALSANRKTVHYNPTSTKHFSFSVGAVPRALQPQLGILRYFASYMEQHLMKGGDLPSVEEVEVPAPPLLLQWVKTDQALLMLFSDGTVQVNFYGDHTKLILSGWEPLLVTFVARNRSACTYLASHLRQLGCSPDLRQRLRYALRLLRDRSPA
Nature of the experiment: Fluorescence polarization competitive binding assay, PLK3 PBD. (In general: In fluorescence polarisation assays a small probe gives low polarisation when free and higher when bound to something large.)

`CC(=O)N1CCC[C@H]1C(=O)N[C@@H](CC(C)C)C(=O)N[C@@H](Cc1c[nH]cn1)C(=O)N[C@@H](CO)C(=O)N[C@H](C(=O)N[C@@H](C)C(=O)O)[C@@H](C)OP(=O)(O)O` [compound 5743, Ac-PLHS[pT]A] displayed an IC50 above 600 µM.
